Assays:
[1] = system: SUM159PT and HS578T cells; test: Mammosphere formation assay; format: cell-based; conditions: for IC50: read-out: Mammosphere ~IC50, SUM159PT and HS578T cells, compound at 1, 10, or 100 μM, 3 d, spheres counted on day 3
[2] = biological target: Stat3 (Homo sapiens, UniProt P40763); test: Stat3 SH2/pY-peptide binding assay (SPR, BIAcore); conditions: for IC50: read-out: SPR IC50, mean ± SD
[3] = biological target: GFP-Stat3α (Homo sapiens, UniProt P40763); test: High-throughput fluorescence microscopy (HTFM) cytoplasmic-to-nuclear translocation assay in MEF/GFP-Stat3α cells; format: cell-based, murine; conditions: read-out: HTFM IC50; mean ± SD
[4] = system: human leukemic cell line; test: Human leukemic cell line (AML) apoptosis

By UniProt entry, the sequences of proteins in these tests, tags left out.
UniProt P40763, whole entry: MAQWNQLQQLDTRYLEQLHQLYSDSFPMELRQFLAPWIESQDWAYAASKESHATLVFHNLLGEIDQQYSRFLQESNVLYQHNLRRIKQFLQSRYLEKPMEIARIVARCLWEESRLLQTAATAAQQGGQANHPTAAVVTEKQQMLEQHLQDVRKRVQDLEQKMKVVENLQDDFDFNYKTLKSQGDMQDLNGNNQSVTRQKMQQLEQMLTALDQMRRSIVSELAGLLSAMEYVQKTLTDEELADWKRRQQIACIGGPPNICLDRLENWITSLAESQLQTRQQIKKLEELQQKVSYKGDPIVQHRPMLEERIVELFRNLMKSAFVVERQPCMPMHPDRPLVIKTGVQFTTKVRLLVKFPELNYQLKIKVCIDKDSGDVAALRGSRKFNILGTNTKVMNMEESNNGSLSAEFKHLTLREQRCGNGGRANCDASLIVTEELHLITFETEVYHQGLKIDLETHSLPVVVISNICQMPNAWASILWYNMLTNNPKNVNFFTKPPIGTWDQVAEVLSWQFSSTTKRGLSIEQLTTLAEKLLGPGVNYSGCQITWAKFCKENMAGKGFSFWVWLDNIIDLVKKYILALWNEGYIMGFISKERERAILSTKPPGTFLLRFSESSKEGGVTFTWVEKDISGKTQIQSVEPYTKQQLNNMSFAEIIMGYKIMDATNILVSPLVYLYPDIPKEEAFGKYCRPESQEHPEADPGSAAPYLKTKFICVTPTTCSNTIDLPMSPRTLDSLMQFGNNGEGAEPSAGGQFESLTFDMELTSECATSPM

Row | SMILES | IC50 [1] [µM] | IC50 [2] [µM] | IC50 [3] [µM] | greater activity than parent Cpd188 in decreasing MSFE [1] [log] | SPR IC50 compared with the parent compound Cpd188 [2] | activity in inducing human leukemic cell line apoptosis compared with parent Cpd188 [4]
1 | Cc1cc(C)c(S(=O)(=O)Nc2cc(Cl)c(O)c3ccccc23)cc1C | 30 | 8 | 22 | – | – | –
2 | O=S(=O)(Nc1cc(Sc2nc[nH]n2)c(O)c2ccccc12)c1ccc(Br)cc1 | 3 | 2 | 49 | 1 | one log lower | a log greater activity
